Here are results for 1 molecule from US9012398B2, “Acylated exendin-4 compounds” (priority 2006, dated 2015).

Amino acid sequences for entries named in this document (tags omitted). Residues count along the entry.
UniProt P43220, 24-463: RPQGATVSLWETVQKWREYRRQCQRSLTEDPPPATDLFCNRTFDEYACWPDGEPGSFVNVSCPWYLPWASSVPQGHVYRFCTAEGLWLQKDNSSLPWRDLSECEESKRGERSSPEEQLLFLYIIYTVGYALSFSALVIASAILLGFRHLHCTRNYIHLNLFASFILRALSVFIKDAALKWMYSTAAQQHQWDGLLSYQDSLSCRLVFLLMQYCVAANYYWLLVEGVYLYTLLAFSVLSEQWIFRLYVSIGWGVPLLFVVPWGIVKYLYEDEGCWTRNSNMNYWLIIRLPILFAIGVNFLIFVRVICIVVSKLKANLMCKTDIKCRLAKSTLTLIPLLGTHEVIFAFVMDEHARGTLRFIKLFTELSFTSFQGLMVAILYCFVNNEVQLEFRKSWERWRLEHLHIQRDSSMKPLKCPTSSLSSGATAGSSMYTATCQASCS

The experiment deals with T1, human GLP-1 receptor (Homo sapiens, UniProt P43220).
T1 construct: expressed in transfected cells; host or cells: BHK cells, clone BHK-467-12A; plasma membrane preparation
In words: Functional receptor assay: cAMP formation in plasma membranes of BHK cells expressing the cloned human GLP-1 receptor (GLP1cAMPma). The format is biochemical. As for the experimental part:
The term “insulinotropic agent” as used herein means a compound which is an agonist of the human GLP-1 receptor, i.e. a compound which stimulates the formation of cAMP in a suitable medium containing the human GLP-1 receptor (one such medium disclosed below). The potency of an insulinotropic agent is determined by calculating the EC50 value from the dose-response curve as described below.
The cells were washed twice in phosphate buffered saline and harvested with Versene. Plasma membranes were prepared from the cells by homogenisation with an Ultraturrax in buffer 1 (20 mM HEPES-Na, 10 mM EDTA, pH 7.4). The homogenate was centrifuged at 48,000×g for 15 min at 4° C. The pellet was suspended by homogenization in buffer 2 (20 mM HEPES-Na, 0.1 mM EDTA, pH 7.4), then centrifuged at 48,000×g for 15 min at 4° C. The washing procedure was repeated one more time. The final pellet was suspended in buffer 2 and used immediately for assays or stored at −80° C.
The functional receptor assay was carried out by measuring cyclic AMP (cAMP) as a response to stimulation by the insulinotropic agent. cAMP formed was quantified by the AlphaScreen™ cAMP Kit (Perkin Elmer Life Sciences). […]
A general note: Cyclic AMP is a second messenger, typically raised through Gs and lowered through Gi signalling.

pEC50: −log10 of the molar value.

For orientation: pEC50 means −log10 of the EC50, conventionally taken in molar units. Read a low pEC50 as a high EC50. Molecule `CCCCCCCCCCCCCCCCCCCC(=O)NCCOCCOCC(=O)NCCOCCOCC(=O)NCCOCCOCC(=O)NCCCC[C@H](NC(=O)[C@@H]1CCCN1C(=O)CNC(=O)CNC(=O)[C@H](CCCNC(=N)N)NC(=O)[C@@H](NC(=O)[C@H](CC(C)C)NC(=O)[C@H](Cc1c[nH]c2ccccc12)NC(=O)[C@H](CCC(=O)O)NC(=O)[C@@H](NC(=O)[C@H](Cc1ccccc1)NC(=O)[C@H](CC(C)C)NC(=O)[C@H](CCCNC(=N)N)NC(=O)[C@@H](NC(=O)[C@H](C)NC(=O)[C@H](CCC(=O)O)NC(=O)[C@H](CCC(=O)O)NC(=O)[C@H](CCC(=O)O)NC(=O)[C@H](CC(C)C)NC(=O)[C@H](CCC(N)=O)NC(=O)[C@H](CCCNC(=N)N)NC(=O)[C@H](CO)NC(=O)[C@H](CC(C)C)NC(=O)[C@H](CC(=O)O)NC(=O)[C@H](CO)NC(=O)[C@@H](NC(=O)[C@H](Cc1ccccc1)NC(=O)[C@@H](NC(=O)CNC(=O)[C@H](CCC(=O)O)NC(=O)CNC(=O)[C@@H](N)Cc1c[nH]cn1)[C@@H](C)O)[C@@H](C)O)C(C)C)[C@@H](C)CC)C(C)C)C(=O)N[C@@H](CO)C(=O)NCC(=O)N[C@@H](C)C(=O)N1CCC[C@H]1C(=O)N1CCC[C@H]1C(=O)N1CCC[C@H]1C(=O)N[C@@H](CO)C(N)=O` [Example 13, N-ε^32-[2-(2-[2-(2-[2-(2-[2-(2-[2-(Eicosanoylamino)ethoxy]ethoxy)acetylamino]ethoxy)ethoxy]acetylamino)ethoxy]ethoxy)acetyl][Arg^12,28,Leu^14,Val^27,Lys^32] Exendin-4-(1-39)amide] showed a pEC50 of 9.57.
